From US10669258B2, “3-sulfonyl-5-aminopyridine-2,4-diol APJ agonists” (BRISTOL-MYERS SQUIBB COMPANY, priority 2016, dated 2020)

Protein sequences, listed by entry. Tags and fused reporters are not part of them.
UniProt P35414, whole entry: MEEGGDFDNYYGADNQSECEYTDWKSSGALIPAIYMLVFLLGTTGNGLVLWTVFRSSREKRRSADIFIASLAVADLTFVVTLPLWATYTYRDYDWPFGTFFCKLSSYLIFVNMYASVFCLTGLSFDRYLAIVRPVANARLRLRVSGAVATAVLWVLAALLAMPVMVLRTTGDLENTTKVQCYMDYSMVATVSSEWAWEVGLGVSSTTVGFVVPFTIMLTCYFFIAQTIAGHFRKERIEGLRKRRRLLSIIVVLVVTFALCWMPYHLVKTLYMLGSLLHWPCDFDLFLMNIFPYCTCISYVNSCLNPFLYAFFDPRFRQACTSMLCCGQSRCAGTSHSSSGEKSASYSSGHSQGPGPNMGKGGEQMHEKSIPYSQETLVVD

Target: human APJ receptor (Homo sapiens, UniProt P35414)
Assay: Intracellular cAMP accumulation assay (APJ hcAMP, HTRF)
Conditions: read-out: hAPJ cAMP EC50 Potency range; HEK293 cells stably expressing human APJ receptor; inhibition of forskolin-mediated cAMP production; Table 1

Row | Structure (SMILES) | EC50
1 | CCCCc1nc(O)c(S(=O)(=O)c2ccc(-c3ccncc3C)cc2)c(O)c1N1CCCCC1c1ccccc1 (centres unmarked) | 10 to 100 nM
2 | CCCCc1nc(O)c(S(=O)(=O)c2ccc(-c3ccncc3C)cc2)c(O)c1N1CCC(C)c2ccccc21 (centres unmarked) | 10 to 100 nM
